These results are taken from article PMC8587101, “Design and Synthesis of Novel Betulin Derivatives Containing Thio-/Semicarbazone Moieties as Apoptotic Inducers through Mitochindria-Related Pathways” (Molecules, 2021).

Some results are limits rather than exact numbers.

The first data set concerns human hepatocellular carcinoma cells (HepG2). As to the kind of experiment: MTT cytotoxicity assay, HepG2. The following applies: HepG2, ratio of IC50 values.
For `C=C(C)[C@@H]1CC[C@]2(/C=N/NC(=O)Nc3cccc(C(F)(F)F)c3)CC[C@]3(C)C(CCC4[C@@]5(C)CC[C@H](O)C(C)(C)C5CC[C@]43C)C12` (stereo partly drawn) [Compound 7e, Lup-20(29)-ene-3β-ol-28-N-(3-(trifluoromethyl)phenyl)semicarbazide], the “cytotoxicity fold higher than betulin” value was “about 2.28 fold”.
The same measure, in the same setting: in the case of `C=C(C)[C@@H]1CC[C@]2(/C=N/NC(=S)Nc3cccc(Cl)c3)CC[C@]3(C)[C@H](CC[C@@H]4[C@@]5(C)CC[C@H](O)C(C)(C)[C@@H]5CC[C@]43C)[C@@H]12` [Compound 8f, Lup-20(29)-ene-3β-ol-28-N-(3-chlorophenyl)thiosemicarbazide] it was 2.97 fold.

Staying with this data set, now noted: Homo sapiens, HepG2, 48 h, read-out: IC50 (μM) HepG2.
A word on the IC50: it is the point on the concentration scale where inhibition reaches its midpoint. Take `C=C(C)[C@@H]1CC[C@]2(CO)CC[C@]3(C)[C@H](CC[C@@H]4[C@@]5(C)CC[C@H](O)C(C)(C)[C@@H]5CC[C@]43C)[C@@H]12` [Compound 1, lup-20(29)-ene-3β,28-diol, reference compound]: the IC50 was determined as 20.4 ± 1.22 µM.
`C=C(C)[C@@H]1CC[C@]2(/C=N/NC(=O)Nc3ccc(Cl)cc3)CC[C@]3(C)C(CCC4[C@@]5(C)CC[C@H](O)C(C)(C)C5CC[C@]43C)C12` (stereo partly drawn) [Compound 7a, Lup-20(29)-ene-3β-ol-28-N-(4-chlorophenyl)semicarbazide]: the IC50 is 11.6 ± 0.62 µM.
The same measure, in the same setting: in the case of `C=C(C)[C@@H]1CC[C@]2(/C=N/NC(=O)Nc3ccc(C#N)cc3)CC[C@]3(C)C(CCC4[C@@]5(C)CC[C@H](O)C(C)(C)C5CC[C@]43C)C12` (stereo partly drawn) [Compound 7b, Lup-20(29)-ene-3β-ol-28-N-(4-cyanophenyl)semicarbazide] it was 15.4 ± 0.75 µM; in that of `C=C(C)[C@@H]1CC[C@]2(/C=N/NC(=O)Nc3ccc(OC)cc3)CC[C@]3(C)C(CCC4[C@@]5(C)CC[C@H](O)C(C)(C)C5CC[C@]43C)C12` (stereo partly drawn) [Compound 7c, Lup-20(29)-ene-3β-ol-28-N-(4-methoxyphenyl)semicarbazide], 46.7 ± 1.68 µM.
Consider `C=C(C)[C@@H]1CC[C@]2(/C=N/NC(=O)Nc3ccc(C(F)(F)F)cc3)CC[C@]3(C)C(CCC4[C@@]5(C)CC[C@H](O)C(C)(C)C5CC[C@]43C)C12` (stereo partly drawn) [Compound 7d, Lup-20(29)-ene-3β-ol-28-N-(4-(trifluoromethyl)phenyl)semicarbazide], for which the IC50 is 12.6 ± 0.67 µM.
In the case of `C=C(C)[C@@H]1CC[C@]2(/C=N/NC(=O)Nc3cccc(C(F)(F)F)c3)CC[C@]3(C)C(CCC4[C@@]5(C)CC[C@H](O)C(C)(C)C5CC[C@]43C)C12` (stereo partly drawn) [Compound 7e, Lup-20(29)-ene-3β-ol-28-N-(3-(trifluoromethyl)phenyl)semicarbazide], the IC50 turned out to be 8.93 ± 0.63 µM.
Same read-out and setting: in the case of `C=C(C)[C@@H]1CC[C@]2(/C=N/NC(=O)Nc3cccc(C)c3)CC[C@]3(C)C(CCC4[C@@]5(C)CC[C@H](O)C(C)(C)C5CC[C@]43C)C12` (stereo partly drawn) [Compound 7f, Lup-20(29)-ene-3β-ol-8-N-(m-tolyl)semicarbazide] it was 49 ± 1.96 µM; in that of `C=C(C)[C@@H]1CC[C@]2(/C=N/NC(=O)Nc3ccc(Cl)c(C(F)(F)F)c3)CC[C@]3(C)C(CCC4[C@@]5(C)CC[C@H](O)C(C)(C)C5CC[C@]43C)C12` (stereo partly drawn) [Compound 7g, Lup-20(29)-ene-3β-ol-28-N-((3-trifluoromethyl-4-chloro)phenyl)semicarbazide], 11 ± 1.02 µM.
For the molecule `C=C(C)[C@@H]1CC[C@]2(/C=N/NC(=S)Nc3ccc(F)cc3)CC[C@]3(C)C(CCC4[C@@]5(C)CC[C@H](O)C(C)(C)C5CC[C@]43C)C12` (stereo partly drawn) [Compound 8a, Lup-20(29)-ene-3β-ol-28-N-(4-fluorophenyl)thiosemicarbazide], the IC50 was found to be 12.4 ± 0.48 µM.
The same measure, in the same setting: under `C=C(C)[C@@H]1CC[C@]2(/C=N/NC(=S)Nc3ccc(Cl)cc3)CC[C@]3(C)C(CCC4[C@@]5(C)CC[C@H](O)C(C)(C)C5CC[C@]43C)C12` (stereo partly drawn) [Compound 8b, Lup-20(29)-ene-3β-ol-28-N-(4-chlorophenyl)thiosemicarbazide] stands 8.4 ± 0.34 µM; under `C=C(C)[C@@H]1CC[C@]2(/C=N/NC(=S)Nc3ccc(C)cc3)CC[C@]3(C)C(CCC4[C@@]5(C)CC[C@H](O)C(C)(C)C5CC[C@]43C)C12` (stereo partly drawn) [Compound 8c, Lup-20(29)-ene-3β-ol-28-N-(p-tolyl)thiosemicarbazide], 40.2 ± 1.28 µM.
Same read-out and setting: under `C=C(C)[C@@H]1CC[C@]2(/C=N/NC(=S)Nc3ccc(OC)cc3)CC[C@]3(C)C(CCC4[C@@]5(C)CC[C@H](O)C(C)(C)C5CC[C@]43C)C12` (stereo partly drawn) [Compound 8d, Lup-20(29)-ene-3β-ol-28-N-(4-methoxyphenyl)thiosemicarbazide] stands 32.5 ± 1.17 µM; under `C=C(C)[C@@H]1CC[C@]2(/C=N/NC(=S)Nc3ccc(C(C)(C)C)cc3)CC[C@]3(C)C(CCC4[C@@]5(C)CC[C@H](O)C(C)(C)C5CC[C@]43C)C12` (stereo partly drawn) [Compound 8e, Lup-20(29)-ene-3β-ol-28-N-(4-tert-butylphenyl)thiosemicarbazide], over 80 µM; under `C=C(C)[C@@H]1CC[C@]2(/C=N/NC(=S)Nc3cccc(Cl)c3)CC[C@]3(C)[C@H](CC[C@@H]4[C@@]5(C)CC[C@H](O)C(C)(C)[C@@H]5CC[C@]43C)[C@@H]12` [Compound 8f, Lup-20(29)-ene-3β-ol-28-N-(3-chlorophenyl)thiosemicarbazide], 6.87 ± 0.76 µM.
In the case of `C=C(C)[C@@H]1CC[C@]2(/C=N/NC(=S)Nc3ccc(Cl)c(Cl)c3)CC[C@]3(C)C(CCC4[C@@]5(C)CC[C@H](O)C(C)(C)C5CC[C@]43C)C12` (stereo partly drawn) [Compound 8g, Lup-20(29)-ene-3β-ol-28-N-(3,4-dichlorophenyl)thiosemicarbazide], the IC50 was determined as 8.74 ± 0.48 µM.
On the same count and under the same terms, in the case of `CO[C@@]12[C@H](COC(N)=O)C3=C(C(=O)C(C)=C(N)C3=O)N1C[C@@H]1N[C@@H]12` [Mitomycin, Mitomycin C, reference compound] it was 27.4 ± 1.24 µM.
